From patent US20190127366A1 (LifeSci Pharmaceuticals, Inc., priority 2015, published 2019)

Chains of the proteins cited; added tags and fusions are not shown. Residues count along the entry.
UniProt P00746, 26-253 limits assumed: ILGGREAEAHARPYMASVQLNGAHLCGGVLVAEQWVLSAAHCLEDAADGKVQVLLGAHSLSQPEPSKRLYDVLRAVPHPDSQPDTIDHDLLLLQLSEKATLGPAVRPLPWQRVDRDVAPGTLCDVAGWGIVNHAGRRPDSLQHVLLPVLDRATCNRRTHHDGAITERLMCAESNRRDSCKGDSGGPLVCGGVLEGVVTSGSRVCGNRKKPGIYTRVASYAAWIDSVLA

Molecular target: human complement factor D (Homo sapiens, UniProt P00746)
Assay: In vitro enzyme inhibition (Z-Lys-SBzl/DTNB absorbance assay)
Details: read-out: CFD IC50; Complement Factor D (R&D Systems), substrate Z-Lys-SBzl, A405 nm
Protocol: The ability of the compounds disclosed herein to inhibit human complement factor D inhibitory activity was quantified according to the 12-step protocol provided below. • 1. Prepare assay buffer: 50 mM Tris/HCl, pH 7.5, 1 M NaCl. • 2. Dilute 10 mM Complement Factor D inhibitor Nafamostat Mesilate (Selleckchem, Catalog #S1386) solution from 10000 μM to 9.77 μM in 100% DMSO, 8 concentrations. Then dilute the serial concentrations of Nafamostat Mesilate 20-fold in assay buffer. • 3. Add 10 μl diluted Nafamostat Mesilate duplicated into each of the inhibitor control well of a 96-well plate (Corning, Catalog #3599). Final concentrations were 50 μM, 25 μM, 12.5 μM, 6.25 μM, 3.125 μM, 0.781 μM, 0.195 μM and 0.049 μM. 0.5% DMSO was in each well finally. • 4. Dilute 20 mM test compounds from 10000 μM to […] in 100% DMSO, 6-fold dilution, 8 concentrations. Then dilute the serial concentrations of test compounds 20-fold in assay buffer. • 5. Add 10 μl diluted test compounds duplicated into the 96-well plate. Final concentrations were 50 μM, 8.33 μM, 1.39 μM, 0.23 μM, 0.0386 μM, 0.0064 μM, 0.0011 μM and 0.0002 μM. 0.5% DMSO was in each well finally. • 6. Dilute 20 mM substrate Z-Lys-SBzl (Bachem, Cat #M-1300) to 200 μM in assay buffer with 200 μM DTNB(Sigma, Catalog #D8130). • 7. Dilute 738 ng/μL Complement Factor D (R&D Systems, Catalog #1824-SE) to 6.25 ng/μL in assay buffer. Add 40 μl diluted Complement Factor D in the 96-well plate. • 8. Positive control well contains Complement Factor D without test compound. Negative control well contains neither Complement Factor D nor test compound. Using assay buffer, bring the total volume of all controls to 50 μl. • 9. Pre-incubate the plate for 5 min at room temperature. • 10. Add 50 μl of diluted substrate/DTNB mixture into each well. Mix the reagents completely by shaking the plate gently for 30 sec. • 11. For kinetic reading: Immediately start measuring absorbance (A405 nm) continuously and record data every 30sec for 60 min. • 12. Data analysis • Inhibition activity of compound was evaluated by IC50. IC50 was calculated according the dose-response curve of compound fitted using GraphPadPrism with “log(inhibitor)-response (variable slope)” equation. • % inhibition was calculated by using following equation:
[formula] • Mean(NC): The average value of the negative control wells' A405 nm values. • Mean(PC): The average value of the positive control wells' A405 nm values.
The ability of the compounds in Table 2 to inhibit human complement factor D inhibitory activity was determined.

Row | Compound | IC50 [µM]
1 | NC(=O)c1nn(CC(=O)N2[C@@H]3CC[C@@H](C3)[C@H]2C(=O)NC(C(N)=O)c2cccc(Cl)c2F)c2ccccc12 (stereo partly shown) | 1 to 10
2 | NC(=O)c1nn(CC(=O)N2[C@@H]3CC[C@@H](C3)[C@H]2C(=O)Nc2cccc(Cl)c2F)c2ccc(C3CC3)cc12 | 1 to 10
3 | NC(=O)c1nn(CC(=O)N2[C@@H]3CC[C@@H](C3)[C@H]2C(=O)Nc2cccc(OC(F)(F)F)c2F)c2ccc(C3CC3)cc12 | 1 to 10
4 | NC(=O)c1nc(CC(=O)N2[C@@H]3CC[C@@H](C3)[C@H]2C(=O)NCc2cccc(Cl)c2F)n2ccccc12 | 1 to 10
